# Test results published in patent publication US9603869B2, “Lithium co-crystals and an additional neuropsychiatric agent for treatment of neuropsychiatric disorders” (UNIVERSITY OF SOUTH FLORIDA, priority 2015, dated 2017).
# Assays:
# [1] = test system: COX2; conditions: Tg2576 mice, diet 8 weeks, lithium 2.25 mmol/kg/day
# [2] = test system: COX2; assay: COX2 expression Western blot in human renal proximal tubule (HRPT) cells; conditions: 0 to 30 mM, 12 hours
# [3] = rats, 4 mEq/kg lithium, oral gavage
# [4] = Smith A J et al., Mol. Pharmaceutics 2013; cited from earlier work
# [5] = effective dose (2.25 mmol/kg/day diet), FIGS. 24 and 25
substance,measurement,setting,value
Lithium Salicylate Proline [LISPRO],kidney (renal) COX2 expression versus control mice,[1],no significant difference
same,COX2 expression (WB),[2],does not Increase COX2 Expression
same,brain lithium level profile,[3],steady brain levels of lithium at 24 hours and 48 hours
same,plasma lithium level at 2 hours,[3],elevated
same,plasma lithium level at 48 hours,[3],remained elevated
same,plasma lithium level at 72 hours,[3],almost undetectable
same,time at which plasma lithium levels peaked,[3],24 h
same,pharmacokinetics compared to other lithium forms,[4],plateau-like pharmacokinetics
same,brain lithium levels compared with equimolar doses of lithium carbonate,[5],higher lithium levels in the brain
same,steady state lithium level in the periphery,[5],0.1 mM
